Biological target: recombinant H-Ras-CVLL (UniProt P01112)

geranylgeranyltransferase I (GGTase I)
Km (in vitro GGTase I activity assay, transfer of [3H]geranylgeranyl from [3H]GGPP to H-Ras-CVLL): The Km and Vmax values obtained for H-Ras-CVLL were 2.8 µM and 0.07 pmol/min, respectively

— US20120035184
